{"source": "patent US6482802B1", "about": "“Use of neomycin for treating angiogenesis-related diseases” (Endowment for Research in Human Biology, Inc., priority 1998, dated 2002)", "key": {"HUVE cells": {"system": "HUVE cells", "assay": "Cytotoxicity against HUVE cells", "assay_type": "cell-based, human", "details": "up to (about) 200 μM", "method": "Human umbilical vein endothelial (HUVE) cells were purchased from Cell Systems Corp. (Kirkland, Wash.). […] Cells between passages 5 and 12 inclusive were used for all experiments. Cell numbers were determined with a Coulter counter, and cell viability was measured by trypan blue dye exclusion assay."}, "[1]": {"system": "chorioallantoic membrane (CAM) of chick embryos", "details": "in vivo"}}}
{"substance": "neomycin", "values": [{"measurement": "cytotoxicity against HUVE cells", "setting": "HUVE cells", "value": "no cytotoxicity"}, {"measurement": "necrosis or visible adverse effect on the chick embryo", "setting": "[1]", "value": "no necrosis or any other visible adverse effect"}]}
